Reference: patent US20090176802A1, “ANTIDOTES TO EXOGENOUS NEUROTOXIC AGENTS” (published 2009)
pIC50, pKi: −log10 of the molar value.

Protein sequences, listed by entry. Tags and fused reporters are not part of them. Lines headed by an entry give the natural chain unless they say otherwise; changes in a name come on top.
UniProt P22303: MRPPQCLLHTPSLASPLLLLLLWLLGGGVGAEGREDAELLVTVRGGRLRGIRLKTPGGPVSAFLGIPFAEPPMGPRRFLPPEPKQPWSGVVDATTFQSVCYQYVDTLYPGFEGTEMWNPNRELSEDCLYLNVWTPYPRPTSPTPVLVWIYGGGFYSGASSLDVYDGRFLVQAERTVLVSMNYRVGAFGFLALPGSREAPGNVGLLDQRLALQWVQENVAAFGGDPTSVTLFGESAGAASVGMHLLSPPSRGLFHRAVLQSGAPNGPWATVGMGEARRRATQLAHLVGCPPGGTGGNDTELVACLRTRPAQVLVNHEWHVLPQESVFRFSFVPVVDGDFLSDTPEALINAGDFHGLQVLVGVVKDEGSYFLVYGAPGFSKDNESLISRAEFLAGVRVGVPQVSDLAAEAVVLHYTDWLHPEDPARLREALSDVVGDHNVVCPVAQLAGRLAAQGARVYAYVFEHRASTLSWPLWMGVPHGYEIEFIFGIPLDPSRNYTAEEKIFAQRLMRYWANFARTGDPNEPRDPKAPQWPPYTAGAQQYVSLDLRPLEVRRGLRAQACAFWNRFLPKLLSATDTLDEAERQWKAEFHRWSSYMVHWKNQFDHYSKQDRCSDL
UniProt Q5U3Y7: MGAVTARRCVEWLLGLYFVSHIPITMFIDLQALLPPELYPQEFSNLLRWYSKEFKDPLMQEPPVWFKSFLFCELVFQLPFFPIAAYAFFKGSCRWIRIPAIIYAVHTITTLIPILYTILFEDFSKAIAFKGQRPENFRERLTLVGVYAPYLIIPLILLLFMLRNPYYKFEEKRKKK
UniProt Q99720: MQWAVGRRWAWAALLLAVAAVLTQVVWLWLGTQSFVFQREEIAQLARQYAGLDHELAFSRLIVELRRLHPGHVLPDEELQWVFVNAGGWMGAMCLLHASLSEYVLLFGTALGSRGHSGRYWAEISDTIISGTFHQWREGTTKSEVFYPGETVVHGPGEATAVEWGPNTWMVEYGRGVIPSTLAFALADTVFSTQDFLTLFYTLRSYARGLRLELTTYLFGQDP

How the values were obtained:
[1] = molecular target: Recombinant human acetylcholinesterase (Homo sapiens, UniProt P22303); experiment: Acetylcholinesterase assay; conditions: for pIC50: human AchE
Sigma-2 receptor = Sigma-2 receptor (Rattus norvegicus, UniProt Q5U3Y7); experiment: Sigma-2 receptor binding, [3H]-DTG
[2] = system: Muscarinic receptor (non-specific); experiment: Muscarinic receptor (non-specific) binding, [3H]-QNB
[3] = system: Central imidazoline-2 receptor (I2); experiment: Central imidazoline-2 receptor (I2) binding, [3H]-idazoxan
[4] = molecular target: Human recombinant sigma-1 receptor (Homo sapiens, UniProt Q99720); experiment: Human recombinant sigma-1 receptor binding, [3H]-(+)-pentazocine
[5] = system: Neuronal nicotinic α-BGTX-insensitive receptor; experiment: Neuronal nicotinic α-BGTX-insensitive receptor binding, [3H]-cytisine
[6] = compared with literature (Greig et al.)

dimethyl-carbamic acid 2,3-bis-dimethylcarbamoyloxy-6-[4-(4-ethyl-piperazin-yl)-butyryl]-phenyl ester
selectivity for human AchE relative to donezepil [1, 6]: 6.8 fold
selectivity for human AchE relative to galantamine [1, 6]: 1.6 fold
pIC50 [1]: 5.89
pIC50 ([1]; substrate AMTCh 50 μM, 30 minutes at 37° C.): 5.89
pIC50 (Sigma-2 receptor; Sigma-2, rat cortex, 5 nM [3H]-DTG): < 5.00
ligand for the receptor (in words) (Sigma-2 receptor; sigma-2): not a ligand
pIC50 (Sigma-2 receptor; σ-2 receptor): > 5.00
ligand for the receptor (in words) ([2]; M): not a ligand
pIC50 ([2]; M (non-specific), rat cortex, 0.05 nM [3H]-QNB): < 5.00
ligand for the receptor (in words) ([3]; I2): not a ligand
pIC50 ([3]; I2 (central), rat cortex, 2 nM [3H]-idazoxan): < 5.00
nH ([4]; Sigma-1 (h), Hill coefficient): 1.2
pIC50 ([4]; Sigma-1 (h), expressed in Jurkat cells, 8 nM [3H]-(+)-pentazocine): 6.17
pIC50 ([4]; human sigma-1 receptor): 6.22
pIC50 ([4]; σ-1 receptor): 6.17
pKi ([4]; σ-1 receptor): 6.25
pIC50 ([5]; N (neuronal, α-BGTX insensitive), rat cortex, 1.5 nM [3H]-cytisine): < 5.00
ligand for the receptor (in words) ([5]; N (α-BGTX insensitive)): not a ligand
